Source: article PMC8237267 (Journal of Medicinal Chemistry, 2021)

Target: T1, HDAC8 (Homo sapiens, UniProt Q9BY41)
T1 construct: The full-length human HDACs were recombinantly expressed and purified from SF9 insect cells; host or cells: SF9 insect cells
T1 sequence (Q9BY41 1-377): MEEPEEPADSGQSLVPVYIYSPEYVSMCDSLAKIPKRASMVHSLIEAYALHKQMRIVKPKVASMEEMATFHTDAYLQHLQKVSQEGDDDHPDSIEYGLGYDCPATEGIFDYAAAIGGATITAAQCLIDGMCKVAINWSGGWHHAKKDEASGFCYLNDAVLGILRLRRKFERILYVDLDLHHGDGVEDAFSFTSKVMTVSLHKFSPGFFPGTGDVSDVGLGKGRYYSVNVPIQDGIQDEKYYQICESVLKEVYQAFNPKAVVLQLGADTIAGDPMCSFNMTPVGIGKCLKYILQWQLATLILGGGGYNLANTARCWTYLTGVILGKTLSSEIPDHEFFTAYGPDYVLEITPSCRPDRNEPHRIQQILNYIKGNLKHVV
Test: HDAC EMSA activity assay (Nanosyn)
Format: biochemical

## COc1ccc(Cn2ccc3ccc(C(=O)NO)cc32)cc1 [PCI-34051, reference compound]
  HDAC8 potency: nanomolar HDAC8 potency
  selectivity toward HDAC8: 120 fold
